Drawing on ChEMBL document CHEMBL1135445, “4'-Arylpyrrolomorphinans: effect of a pyrrolo-N-benzyl substituent in enhancing delta-opioid antagonist activity” (J Med Chem, 2002), this text covers Ke for 1 compound.

Amino acid sequences for entries named in this document (tags omitted). A change or cut given only in a name is not applied to a line headed by its entry.
UniProt P41143, whole entry: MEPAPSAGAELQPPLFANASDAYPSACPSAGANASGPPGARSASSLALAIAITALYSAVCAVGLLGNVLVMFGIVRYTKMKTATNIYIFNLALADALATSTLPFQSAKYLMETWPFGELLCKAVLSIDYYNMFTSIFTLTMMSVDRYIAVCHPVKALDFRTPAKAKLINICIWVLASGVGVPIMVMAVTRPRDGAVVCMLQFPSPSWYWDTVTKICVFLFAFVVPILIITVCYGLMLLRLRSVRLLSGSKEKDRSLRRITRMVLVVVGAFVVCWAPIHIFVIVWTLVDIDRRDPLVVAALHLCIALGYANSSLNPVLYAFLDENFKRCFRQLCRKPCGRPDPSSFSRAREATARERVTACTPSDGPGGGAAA
UniProt P35372, whole entry: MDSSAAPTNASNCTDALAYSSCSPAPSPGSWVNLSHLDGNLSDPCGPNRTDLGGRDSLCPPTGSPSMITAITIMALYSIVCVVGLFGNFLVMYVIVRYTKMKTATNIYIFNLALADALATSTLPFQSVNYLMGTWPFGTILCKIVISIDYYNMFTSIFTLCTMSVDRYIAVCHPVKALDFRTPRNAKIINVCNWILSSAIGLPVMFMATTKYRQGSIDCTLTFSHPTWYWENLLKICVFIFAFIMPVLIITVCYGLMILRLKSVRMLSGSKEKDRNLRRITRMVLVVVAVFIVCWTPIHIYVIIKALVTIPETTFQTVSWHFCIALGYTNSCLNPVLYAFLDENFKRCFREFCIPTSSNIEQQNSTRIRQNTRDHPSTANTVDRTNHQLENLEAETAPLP
UniProt P41145: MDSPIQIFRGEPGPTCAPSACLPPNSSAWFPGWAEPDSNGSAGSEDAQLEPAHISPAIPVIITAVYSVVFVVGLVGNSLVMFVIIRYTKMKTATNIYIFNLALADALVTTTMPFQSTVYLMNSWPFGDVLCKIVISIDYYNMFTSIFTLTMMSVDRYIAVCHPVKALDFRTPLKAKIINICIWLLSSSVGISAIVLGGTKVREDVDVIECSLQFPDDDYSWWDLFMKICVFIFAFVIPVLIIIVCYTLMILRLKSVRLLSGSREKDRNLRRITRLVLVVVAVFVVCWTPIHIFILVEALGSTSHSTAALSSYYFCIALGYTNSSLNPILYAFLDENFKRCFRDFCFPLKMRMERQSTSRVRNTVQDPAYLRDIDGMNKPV

What all share (type): functional, cell-based
The target in test [1] is Delta-type opioid receptor (Homo sapiens, UniProt P41143). Briefly: The antagonistic activity tested in [35S]GTP-gamma-S, Recombinant Human Opioid receptor delta 1 transfected in to CHO cells for the displacement of [3H]Cl-DPDPE (delta). A digest of the protocol:
(§1)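 [35S]GTPγS binding in CHO cells expressing cloned human opioid receptors. Antagonist affinity (Ke) was derived from the compound's blockade of a standard agonist: DAMGO at mu, Cl-DPDPE at delta, U69593 at kappa.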

Another test concerns the target Mu-type opioid receptor (Homo sapiens, UniProt P35372). Briefly: The antagonistic activity tested in [35S]-GTP-gamma S Recombinant Human Opioid receptor mu 1 transfected in to CHO cells for the displacement of [3H]DAMGO (mu). The gist of the method:
as §1
In general terms: Binding of GTPγS marks nucleotide exchange on a G protein.

Test [2] concerns the target Kappa-type opioid receptor (Homo sapiens, UniProt P41145). Briefly: The antagonistic activity of compound was tested in [35S]GTP-gamma-S, Recombinant Human Opioid receptor kappa 1 transfected in to CHO cells for the displacement of [3H]U-69593. The gist of the method:
as §1

For the compound `Oc1ccc2c3c1O[C@H]1c4c(c(-c5ccccc5)cn4Cc4ccccc4)C[C@@]4(O)C(C2)N(CC2CC2)CC[C@]314`, the Ke is 0.43 nM in test [1], 8.09 nM on Mu-type opioid receptor and 21.6 nM in test [2].
